Data as given in article PMC11842024, “Reversible male contraception by targeted inhibition of serine/threonine kinase 33” (Science (New York, N.Y.), 2024).
Like-named read-outs stand apart in the source and are kept apart here.

Sequences of proteins named here, by UniProt entry; tags and fusion partners are left off. Residues count along the entry.
UniProt Q9BYT3, whole entry: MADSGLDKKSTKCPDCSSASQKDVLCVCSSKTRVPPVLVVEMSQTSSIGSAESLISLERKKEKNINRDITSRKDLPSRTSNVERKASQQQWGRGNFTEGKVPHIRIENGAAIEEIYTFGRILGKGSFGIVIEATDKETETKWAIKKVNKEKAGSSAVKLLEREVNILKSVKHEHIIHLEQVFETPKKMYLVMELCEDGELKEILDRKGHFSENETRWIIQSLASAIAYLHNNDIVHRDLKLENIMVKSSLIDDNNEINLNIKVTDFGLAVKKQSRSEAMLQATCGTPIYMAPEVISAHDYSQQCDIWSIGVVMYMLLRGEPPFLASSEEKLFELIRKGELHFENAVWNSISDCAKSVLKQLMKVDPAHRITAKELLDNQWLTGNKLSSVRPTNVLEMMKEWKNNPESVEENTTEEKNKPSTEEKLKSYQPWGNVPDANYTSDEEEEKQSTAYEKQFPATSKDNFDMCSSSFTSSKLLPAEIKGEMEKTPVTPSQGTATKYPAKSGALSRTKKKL
UniProt P49760, whole entry: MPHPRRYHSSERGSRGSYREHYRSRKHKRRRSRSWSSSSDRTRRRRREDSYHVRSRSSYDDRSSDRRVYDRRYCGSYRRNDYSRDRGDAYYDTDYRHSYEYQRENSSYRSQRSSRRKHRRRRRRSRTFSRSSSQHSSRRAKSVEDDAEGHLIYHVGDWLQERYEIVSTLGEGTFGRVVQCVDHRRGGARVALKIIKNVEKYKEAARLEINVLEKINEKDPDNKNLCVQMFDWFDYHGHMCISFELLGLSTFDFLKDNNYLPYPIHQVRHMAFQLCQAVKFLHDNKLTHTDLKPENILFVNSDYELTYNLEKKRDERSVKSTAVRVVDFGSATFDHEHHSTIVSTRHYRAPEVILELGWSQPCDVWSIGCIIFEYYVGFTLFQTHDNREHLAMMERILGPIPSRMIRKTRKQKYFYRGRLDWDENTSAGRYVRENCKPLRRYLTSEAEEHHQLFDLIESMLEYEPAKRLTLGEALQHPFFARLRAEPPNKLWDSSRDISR
UniProt P49759, whole entry: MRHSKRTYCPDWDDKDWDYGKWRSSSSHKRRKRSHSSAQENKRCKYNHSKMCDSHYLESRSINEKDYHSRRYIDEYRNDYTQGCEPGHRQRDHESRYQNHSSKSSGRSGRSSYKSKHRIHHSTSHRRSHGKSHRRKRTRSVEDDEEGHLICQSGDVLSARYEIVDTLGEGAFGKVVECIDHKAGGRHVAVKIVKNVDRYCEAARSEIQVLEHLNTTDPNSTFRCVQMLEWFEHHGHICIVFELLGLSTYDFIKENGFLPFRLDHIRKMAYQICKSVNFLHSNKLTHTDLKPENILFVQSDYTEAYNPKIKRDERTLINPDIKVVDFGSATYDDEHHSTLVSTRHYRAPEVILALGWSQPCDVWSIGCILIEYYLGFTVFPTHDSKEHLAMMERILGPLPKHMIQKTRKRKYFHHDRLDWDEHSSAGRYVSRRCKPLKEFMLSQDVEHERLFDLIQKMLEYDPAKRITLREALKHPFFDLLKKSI
UniProt P07949, 29-1114 limits assumed: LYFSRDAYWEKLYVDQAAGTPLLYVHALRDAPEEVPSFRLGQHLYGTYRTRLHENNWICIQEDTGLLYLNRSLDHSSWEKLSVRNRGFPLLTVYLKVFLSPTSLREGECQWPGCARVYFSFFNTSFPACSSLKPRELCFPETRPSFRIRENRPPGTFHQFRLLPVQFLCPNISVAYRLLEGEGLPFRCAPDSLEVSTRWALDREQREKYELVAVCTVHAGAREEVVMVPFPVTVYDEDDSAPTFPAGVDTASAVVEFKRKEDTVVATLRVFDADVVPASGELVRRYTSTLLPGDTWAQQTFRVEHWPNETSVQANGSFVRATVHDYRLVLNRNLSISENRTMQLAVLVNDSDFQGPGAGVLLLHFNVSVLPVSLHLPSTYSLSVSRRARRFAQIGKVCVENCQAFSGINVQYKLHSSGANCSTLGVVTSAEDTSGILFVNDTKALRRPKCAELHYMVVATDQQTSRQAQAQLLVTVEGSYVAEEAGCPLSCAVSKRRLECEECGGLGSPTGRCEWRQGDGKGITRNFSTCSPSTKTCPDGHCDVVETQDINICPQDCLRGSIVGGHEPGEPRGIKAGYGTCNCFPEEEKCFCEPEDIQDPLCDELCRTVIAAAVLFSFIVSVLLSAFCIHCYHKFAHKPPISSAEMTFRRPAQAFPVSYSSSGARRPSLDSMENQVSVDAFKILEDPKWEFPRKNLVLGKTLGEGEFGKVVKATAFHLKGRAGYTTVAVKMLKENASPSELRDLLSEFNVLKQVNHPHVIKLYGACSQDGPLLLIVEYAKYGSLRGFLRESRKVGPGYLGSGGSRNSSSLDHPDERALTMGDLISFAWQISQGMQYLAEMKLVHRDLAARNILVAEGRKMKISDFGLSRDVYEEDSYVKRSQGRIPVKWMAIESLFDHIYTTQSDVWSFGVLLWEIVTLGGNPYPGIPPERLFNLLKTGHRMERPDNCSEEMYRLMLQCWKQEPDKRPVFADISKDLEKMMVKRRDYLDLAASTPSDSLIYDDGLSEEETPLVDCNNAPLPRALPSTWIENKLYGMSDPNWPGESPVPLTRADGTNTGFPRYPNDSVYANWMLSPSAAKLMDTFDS
UniProt Q9HAZ1, whole entry: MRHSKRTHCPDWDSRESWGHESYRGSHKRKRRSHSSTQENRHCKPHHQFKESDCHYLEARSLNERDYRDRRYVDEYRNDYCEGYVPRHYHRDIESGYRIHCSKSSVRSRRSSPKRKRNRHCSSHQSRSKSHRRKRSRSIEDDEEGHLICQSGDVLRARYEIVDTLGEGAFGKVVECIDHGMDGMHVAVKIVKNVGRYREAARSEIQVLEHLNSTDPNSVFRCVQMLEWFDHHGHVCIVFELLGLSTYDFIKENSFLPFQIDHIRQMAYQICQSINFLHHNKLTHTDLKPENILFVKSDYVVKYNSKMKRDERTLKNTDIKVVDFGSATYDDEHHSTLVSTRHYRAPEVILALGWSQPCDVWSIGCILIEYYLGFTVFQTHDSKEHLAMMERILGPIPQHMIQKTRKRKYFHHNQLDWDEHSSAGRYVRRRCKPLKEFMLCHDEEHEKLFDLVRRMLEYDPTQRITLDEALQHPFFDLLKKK

Tests used:
[1] = molecular target: T1, STK33 (Homo sapiens, UniProt Q9BYT3); assay: LanthaScreen binding assay (ThermoFisher SelectScreen); details: read-out: LanthaScreen Kd STK33
Text: (§1) In vitro biochemical assays. Several small molecule assays were outsourced to SelectScreen Services (ThermoFisher) for STK33 and for off-target kinases (data sets are available on demand).
(§2) These assays are LanthaScreen (binding assay) and Z’-LYTE (activity assay). Dose-responses were done with at least 5 different concentrations in duplicates, and parameters were optimized by calculations described below and provided with standard errors.
(§3) Calculation of Kd values for kinase inhibitors that bind to the ATP pocket of a kinase from LanthaScreen binding data. DynaFit (71) was used to fit complex equilibria where a tracer is displaced by a dilution series of a kinase inhibitor. This method relies on the concentration of inhibitor, as well as the concentration of kinase and tracer, and Kd of the tracer. The latter three parameters are tabulated by ThermoFisher for each kinase in the LanthaScreen assay panel. […]
Since Kd and Ki values are defined the same way, in other words, Kd = [E] [I] / [EI] = Ki, Kd and Ki values can be compared. […]

[2] = molecular target: T2, CLK2 (Homo sapiens, UniProt P49760); assay: Z'-LYTE activity assay (ThermoFisher SelectScreen); details: read-out: Z'LYTE Ki CLK2; [ATP] = Kmapp
Text: as §1
(§4) These assays are LanthaScreen (binding assay) and Z’-LYTE (activity assay). Dose-responses were done with at least 5 different concentrations in duplicates, and parameters were optimized by calculations described below and provided with standard errors. […]
(§5) Calculation of Ki values for kinase inhibitors from Z’-LYTE inhibition data. The Morrison equation with [ATP] = Kmapp for competitive inhibition (GraphPad Prism 7, San Diego, CA) was used to get Ki values. Since Kd and Ki values are defined the same way, in other words, Kd = [E] [I] / [EI] = Ki, Kd and Ki values can be compared. […]

[3] = molecular target: T3, CLK1 (Homo sapiens, UniProt P49759); assay: Z'-LYTE activity assay (ThermoFisher SelectScreen); details: read-out: Z'LYTE Ki CLK1; [ATP] = Kmapp
Text: as §1, §4, §5

[4] = molecular target: T4, RET (Homo sapiens, UniProt P07949); assay: Z'-LYTE activity assay (ThermoFisher SelectScreen); details: read-out: Z'LYTE Ki RET; [ATP] = Kmapp
Text: as §1, §4, §5

[5] = molecular target: T5, CLK4 (Homo sapiens, UniProt Q9HAZ1); assay: LanthaScreen binding assay (ThermoFisher SelectScreen); details: read-out: LanthaScreen Kd CLK4
Text: as §1, §2, §3

[6] = molecular target: T2, CLK2; assay: NanoBRET target engagement intracellular kinase assay; details: read-out: NanoBRET IC50 CLK2; HEK293 cells, 2 hours incubation
Protocol: (§6) NanoBRET Target Engagement intracellular kinase assay. HEK293T cells were cultured in […]
(§7) The cell line underwent authentication by short tandem repeat (STR) profiling at Cytogenetics and Cell Authentication Core (CCAC) at MD Anderson Cancer Center. NanoBRET Target Engagement intracellular kinase assay, K-10 assay (Cat. # N2641), K-9 assay (Cat. # N2631), transfection reagent FuGENE HD (Cat. # E2311), transfection carrier DNA (Cat. # E4881), NanoLuc-STK33 fusion vector (Cat. # NV2111), NanoLuc-RET fusion vector (Cat. # NV1951), NanoLuc-CLK1 fusion vector (Cat. # NV1131), NanoLuc-CLK2 fusion vector (Cat. # NV1141), and NanoLuc-CLK4 fusion vector (Cat. # NV1151) were purchased from Promega. The measurement of test compound engagement with cellular target protein was performed in a 384-well format according to manufacturer’s instructions. HEK293 cells were transiently transfected with NanoLuc (STK33, RET, CLK1, CLK2, and CLK4) fusion vectors. After 36 hours of transfection, cells were treated with a fixed concentration of tracer (recommended by Promega) followed by compounds (inhibitors) for 2 hours of incubation. To determine the test compound […]
(§8) 0.4 nM at a fixed tracer concentration. Staurosporine was measured in parallel as a positive control.
(§9) Freshly prepared NanoBRET Nano-Glo substrate plus extracellular NanoLuc inhibitor was then added to initiate the subsequent bioluminescence resonance energy transfer (BRET) measurements using a CLARIOstar Plus BMG LABTECH plate reader. Data analysis was done by measuring the ratio of acceptor emission to donor emission (BRET ratio) and normalized by subtracting no-tracer-control-background. IC50 values were obtained by nonlinear regression using a four-parameter equation in GraphPad Prism 7 (San Diego, CA).

[7] = molecular target: T1, STK33; assay: as above; details: read-out: NanoBRET IC50 STK33; HEK293 cells, 2 hours incubation
Protocol: as §6, §7, §8, §9

[8] = molecular target: T3, CLK1; assay: as above; details: read-out: NanoBRET IC50 CLK1; HEK293 cells, 2 hours incubation
Protocol: as §6, §7, §8, §9

[9] = molecular target: T5, CLK4; assay: as above; details: read-out: NanoBRET IC50 CLK4; HEK293 cells, 2 hours incubation
Protocol: as §6, §7, §8, §9

[10] = molecular target: T4, RET; assay: as above; details: read-out: NanoBRET IC50 RET; HEK293 cells, 2 hours incubation
Protocol: as §6, §7, §8, §9

[11] = molecular target: T1, STK33; details: read-out: reported IC50 in biochemical assays; cited from earlier work

| Structure (SMILES) | Kd [1] [nM] | Ki [2] [nM] | Ki [3] [nM] | Ki [4] [nM] | Kd [5] [nM] | IC50 [6] [nM] | IC50 [7] [µM] | IC50 [8] [nM] | IC50 [9] [nM] | IC50 [10] [nM] | IC50 [11] [nM] |
| --- | --- | --- | --- | --- | --- | --- | --- | --- | --- | --- | --- |
| COc1ccc(-n2ncc3cnc(Nc4ccc(N5CCN(C)CC5)c(OC)c4)nc32)cc1 | 1.7 | 8.7 | 2.2 | 2.6 | 1.2 | 200 | 0.75 | 410 | 41 | 960 | 7 |
| CC(=O)NC[C@@H]1C[C@@H](NS(=O)(=O)c2cccc3cncc(C)c23)CN1 | 1.2 | > 1000 | > 1000 | 45.9 | > 1000 | > 40000 | 11.8 | > 40000 | > 40000 | > 40000 | 11 |
